This passage reports koff, kon and Kd results from US20130217864A1 (HANDOK PHARMACEUTICALS, published 2013).

For assay [1], the target named is T1, hIL-1RI protein (human, UniProt P14778 18-332, limits assumed).
T1 construct: Analyte in the SPR experiment; also called IL-1 receptor
T1 sequence (looked up): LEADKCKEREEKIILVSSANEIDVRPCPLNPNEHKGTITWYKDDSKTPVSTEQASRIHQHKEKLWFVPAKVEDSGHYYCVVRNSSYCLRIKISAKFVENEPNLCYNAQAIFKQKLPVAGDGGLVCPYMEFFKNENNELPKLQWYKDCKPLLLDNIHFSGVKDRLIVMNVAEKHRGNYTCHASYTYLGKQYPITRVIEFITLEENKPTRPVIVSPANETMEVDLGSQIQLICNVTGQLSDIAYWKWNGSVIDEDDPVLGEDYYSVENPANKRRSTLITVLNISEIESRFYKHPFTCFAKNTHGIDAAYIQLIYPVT
Nature of the assay: SPR (Biacore), CM5 chip, fusion protein immobilised by amine coupling, receptor injected as analyte (labelled IL1R1-Fc on the sheet), 1.25-40 nM. The procedure:
(§1) To compare the binding affinity of the IL1Ra-hyFc fusion protein and hIL-1RA fused with Fc from IgG1 to hIL-1 RI, surface plasmon resonance (SPR) value was measured using Biacore (GE Healthcare).
(§2) CM5 chip set up to Biacore and then PBS (Phosphate buffered saline, PBS) was flowed into the CM5 chip. After the confirming that the baseline of the graph remained constant, 1-ethyl-3-dimethylaminopropyl carbodiimide (EDC)/N-hydroxy succinimide (NHS) was add to the chip to activate the amine group. Next, the IL1Ra-hyFc fusion protein or hIL-1RA fused with Fc from IgG1 was introduced to the chip to fix the proteins via covalent linkage with the activated amine group followed by additional fixation using ethanol amine. Then hIL-1RI protein was introduced into the chip to measure the resonance unit (RU), which represent the binding affinity.

The target of assay [2] is T1, hIL-1RI protein. Put plainly: SPR (Biacore), fusion protein amine-coupled to CM5 chip, hIL-1RI protein flowed over. The procedure: as §1, §2
On the technique in general: In SPR one partner is held on a chip, and binding of the other changes the refractive index at the surface.

B1: IL-1 receptor antagonist-hybrid Fc fusion protein (Fc fusion)
chain: RPSGRKSSKMQAFRIWDVNQKTFYLRNNQLVAGYLQGPNVNLEEKIDVVPIEPHALFLGIHGGKMCLSCVKSGDETRLQLEAVNITDLSENRKQDKRFAFIRSDSGPTTSFESAACPGWFLCTAMEADQPVSLTNMPDEGVMVTKFYFQEDEGGSRNTGRGGEEKKKEKEKEEQEERETKTPECPSHTQPLGVFLFPPKPKDTLMISRTPEVTCVVVDVSQEDPEVQFNWYVDGVEVHNAKTKPREEQFNSTYRVVSVLTVLHQDWLNGKEYKCKVSNKGLPSSIEKTISKAKGQPREPQVYTLPPSQEEMTKNQVSLTCLVKGFYPSDIAVEWESNGQPENNYKTTPPVLDSDGSFFLYSRLTVDKSRWQEGNVFSCSVMHEALHNHYTQKSLSLSLGK
notes: also called IL1Ra-hyFc fusion protein; IL-1Ra-hyFc
For the molecule B1, in assay [1], the koff (usually the first-order rate constant of dissociation) worked out at 0.000113 s⁻¹ and the kon (usually a measure of how fast the partners come together) stood at 611000 M⁻¹ s⁻¹. The dissociation constant Kd (as a rule, a measure of binding affinity in units of concentration) in assay [2] was determined as 0.186 nM.

B2: hIL-1RA fused with Fc from IgG1 (Fc fusion, human, UniProt P18510 26-177, looked up)
chain: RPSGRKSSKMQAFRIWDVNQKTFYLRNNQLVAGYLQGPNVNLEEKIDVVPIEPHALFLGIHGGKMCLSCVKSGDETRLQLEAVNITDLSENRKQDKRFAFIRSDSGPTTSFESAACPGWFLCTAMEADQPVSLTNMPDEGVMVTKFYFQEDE
notes: Control fusion protein; also called IL-1 receptor antagonist fused to IgG1 Fc; hIL1RA fused to IgG1 Fc; not shown: Fc from IgG1
For B2, the Kd in assay [2] came out at 1.02 nM.
